# According to patent publication US8119640B2, “Hedgehog pathway antagonists methods of use” (The Board of Trustees of the Leland Stanford Junior …, priority 2008, dated 2012):
# “Also recorded” adds a separate entry of the source.
# Tested on: Math1-cre:SmoM2 cerebellar GNPs
# Assay: Math1-cre:SmoM2 cerebellar GNP proliferation
# Format: cell-based, mice
# Details: HPIs 10 μM, cyclopamine 5 μM, 24 h
# Protocol: Analysis of Math1-cre:SmoM2 cerebellar GNP proliferation. To generate Math1-cre:SmoM2 tumors (11), a Math1-cre driver was used to conditionally express an activated Smo (SmoM2) allele. The Gt(ROSA)26Sortm1 (Smo/EYFP)Amc/J) mouse line was obtained from Jackson Laboratory (Bar Harbor, ME). […] Primary cultures from Math1-cre:SmoM2 tumors were established by triturating tumor tissue and plating the dissociated cells onto poly-D-ornithine-coated plates in DMEM-F-12 with N2 supplement, 25 mM KCI, and antibiotics. After culturing the cells for 24 h, they were treated with individual HPIs ([…]) for 24 h. Cell proliferation was then quantified by immunocytochemistry, and the expression of cyclin D1 and Gli1 were assessed by immunoblotting and RT-PCR, respectively. For immunocytochemistry, the primary cultures were fixed in 4% paraformaldehyde for 30 min at room temperature. […] Immunofluorescently stained cultures were imaged using a Nikon Eclipse E600 microscope equipped with a 20×objective. Approximately 30,000 cells were analyzed for each experimental condition. […] The resulting PCR products were analyzed on 2% agarose gels.
smiles,measurement,value
"CC1=C2C[C@H]3[C@@H](CC=C4C[C@@H](O)CC[C@@]43C)[C@@H]2CC[C@]12O[C@@H]1C[C@H](C)CN[C@H]1[C@H]2C [cyclopamine, reference compound]",Proliferation of SmoM2-expressing GNPs (histone H3 phosphorylation),cyclopamine-resistant; also recorded: ineffective against either oncogenic lesion
